The EC50 is the concentration giving half of the maximal effect. High values mean a less potent agent, low ones a more potent agent.

By UniProt entry, the sequences of proteins in these tests, tags left out. Where a name states a change or a piece, a line headed by the entry shows the natural chain unless it says otherwise.
UniProt P41145: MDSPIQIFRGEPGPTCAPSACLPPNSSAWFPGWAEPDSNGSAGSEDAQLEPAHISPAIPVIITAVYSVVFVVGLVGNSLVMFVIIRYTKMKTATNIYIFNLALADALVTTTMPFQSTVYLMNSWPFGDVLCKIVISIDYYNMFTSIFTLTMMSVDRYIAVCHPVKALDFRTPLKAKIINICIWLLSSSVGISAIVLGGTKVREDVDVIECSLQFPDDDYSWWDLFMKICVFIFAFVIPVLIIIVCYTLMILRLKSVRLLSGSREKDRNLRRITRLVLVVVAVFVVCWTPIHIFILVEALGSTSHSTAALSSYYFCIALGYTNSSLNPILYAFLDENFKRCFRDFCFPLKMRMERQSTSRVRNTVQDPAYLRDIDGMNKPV

In this test the target is KOP receptors (Homo sapiens, UniProt P41145). The test is described as follows: biochemical.

`CCO[C@@H](C)O[C@H]1C[C@@H](C(=O)OC)[C@]2(C)CC[C@H]3C(=O)O[C@H](c4ccoc4)C[C@]3(C)[C@H]2C1=O` [Compound 8a] came in with an EC50 of 150 ± 14 nM.

The values above are taken from publication PMC3307802 (MedChemComm, 2011).
